# Measured affinities in a library of Ab-14 light chain variants

Target peptide (SARS-CoV-2 spike, HR2 region): PDVDLGDISGINAS

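The starting antibody came from a phage panning campaign against this peptide. These sequences belong to a second round, designed from the earlier measurements on random variants of the parent. Their group label is 14L_En_Gibbs (En: ensemble of fine-tuned language models; Gibbs: Gibbs sampling). The assay is AlphaSeq: two haploid yeast populations carry antibody and antigen on their surface. The frequency of each diploid, read from paired DNA barcodes, reflects how well the two displayed proteins bind. Each replicate has its own calibration line, from reference interactions of the BCL2 family. The assay was run in six technical replicates.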

Each scFv is VH, a 15-residue (Gly4Ser)3 linker, VL, as in the parent Ab-14, and differs from it in the CDRs of the light chain only.
VH: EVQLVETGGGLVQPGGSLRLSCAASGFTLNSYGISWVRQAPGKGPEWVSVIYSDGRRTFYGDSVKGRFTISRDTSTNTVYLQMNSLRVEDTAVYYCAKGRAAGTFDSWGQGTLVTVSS
VL: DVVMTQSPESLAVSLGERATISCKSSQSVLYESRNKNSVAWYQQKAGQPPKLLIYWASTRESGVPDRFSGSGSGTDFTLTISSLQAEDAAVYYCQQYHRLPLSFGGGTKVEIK

Each variant is given by its three light chain CDRs, as the data file delimits them; those of the parent are KSSQSVLYESRNKNSVA, WASTRES, QQYHRLPLS.
Numbers give log10(Kd / nM), so 0 is 1 nM and 3 is 1 µM. Smaller is tighter.
"ND" means that the variant was in the library but no mating with the target was seen in that replicate; the authors take this as a sign of poor binding, and no number exists.
A sequence measured in both rounds can read differently, since the two assays cover different ranges.
Empty control strains, which show no peptide, gave a signal in 4% of pairings with all light chain designs; the median was 2.64 and 95% of these signals were weaker than 1.59. No background was subtracted. The control count says in how many pairings with the empty strains this scFv gave a signal.
In the paper, a design with two or fewer of six values counts as a poor binder.

The variant GHDHTMDSGKQAPNSIA | NAEQKTI | QQYQRLPLS gave 0.47, 0.07, -0.03, 0.50, 0.25, 0.62 (controls 0 of 18).
The variant LIKGMVEGQLYKQNAIA | NAEERDR | QQYNHLPLS gave 0.34, 0.50, 0.33, 0.50, 0.35, 0.55 (controls 1 of 18).
The variant NVGGEDPGQWYMHDSIA | GSSLRAE | QQYWRLPLL gave 0.50, 0.46, 0.46, 0.32, 0.36, 0.79 (controls 3 of 18).
The variant NLSWKTEMQNMDYYAVA | QTEQREA | QQYAILPLS gave 0.29, 0.48, 0.21, 0.25, 0.47, 0.34 (controls 0 of 18).
The variant QFESLEEEGYQYSNNIA | GGEQRFS | QQYVKLPLV gave 0.75, 0.80, 0.45, 0.56, 0.71, 0.86 (controls 2 of 18).
The variant MITDAWNTLGNDRNNIA | HNNVRED | QQYQQLPLV gave 0.86, 0.76, 0.68, 0.79, 0.78, 0.94 (controls 3 of 18).
The variant HFDQTRQEGIQDKNSVA | QGSVVAS | QHYSKLPLS gave 1.94, 1.30, 1.51, 1.60, 1.86, 1.51 (controls 0 of 18).
The variant MISGAEYGLGMDYANVA | HGQMRED | QQYQRIPLM gave 0.56, 0.24, 0.09, 0.11, 0.25, 0.25 (controls 1 of 18).
The variant QLDQAYRVGELWKYSIA | HGSMRVQ | QCYVRLPLS gave ND, ND, ND, ND, ND, ND (controls 1 of 18).
The variant RLLDWADGWTMKERNIA | DEDIRGA | QQYSHLPLA gave 0.67, 0.30, 0.15, 0.46, 0.13, 0.48 (controls 3 of 18).
The variant MFEGYNSEGEANNNNVA | DHNCGER | QQYYRLPLA gave 0.67, 0.77, 0.49, 0.15, 0.77, 0.72 (controls 0 of 18).
The variant LIKGMVEGQYYWQNAIA | NSEERDR | QQYNHLPLS gave 0.74, 1.27, 0.54, 1.37, 1.06, 1.46 (controls 1 of 18).
The variant FMGGTKEMQSNEIGNIA | DMNERFA | QQYFQLPLS gave 0.94, 0.69, 0.54, 0.47, 0.62, 0.62 (controls 1 of 18).
The variant QLQYAPGESLRSTQSIA | DVNIKDM | QQYARLPLA gave 0.42, 0.92, 0.10, 0.12, 0.01, 0.30 (controls 0 of 18).
The variant VLPDHELMLESQQHSIA | NEDKRME | QQYSRLPLM gave 0.07, 0.16, 0.26, 0.09, 0.24, 0.46 (controls 0 of 18).
The variant YLSNQETEQIQHANSIA | DRDEVDV | QQYAHLPLS gave 2.31, 2.22, 1.99, ND, ND, ND (controls 0 of 18).
The variant MITGSMENQESNQNPVA | SATCKAP | QQYSRLPLM gave 2.52, 1.20, 1.34, 3.58, 1.53, 1.64 (controls 1 of 18).
The variant KLGGESYNSTYEMDNVA | DVNTTYE | QHYSRLPLT gave 1.68, 1.55, 1.30, 1.47, 1.35, 1.40 (controls 1 of 18).
The variant HVSNLYTDESVREYNIA | ETSHVEE | QQYERLPLI gave 0.94, 1.08, 0.56, 0.83, 0.89, 0.90 (controls 1 of 18).
The variant KFAYGLDYNSAHKSAVA | HADIRVI | QQYFRLPLD gave 1.41, 1.77, 1.17, 2.44, 2.27, ND (controls 1 of 18).
The variant QLEWDQLWGANYDYSVA | ATDVISP | QQYHRLPLI gave 0.56, 0.61, 0.42, 0.48, 0.27, 0.69 (controls 1 of 18).
The variant QLSWTSNQHSAGKDAVA | EAVHRDQ | QQYQRLPLT gave 0.50, 0.53, 0.42, 0.54, 0.41, 0.53 (controls 1 of 18).
The variant KLMQSLSGEPKDWYNVA | EAESATV | QDYARLPLM gave ND, ND, ND, ND, ND, ND (controls 0 of 18).
The variant QVEDIKMKGNDFGDSVA | ETNARYA | QQYFRLPLA gave 0.79, 0.83, 0.70, 0.64, 0.81, 0.97 (controls 1 of 18).
The variant TLMHHQDRYDNWKKSIA | EASIRES | QQYQRLPLA gave 1.41, 0.47, 0.31, 0.31, 0.86, 0.66 (controls 0 of 18).
The variant KLSWKSLYGETRWSAIA | NTKVRNA | QQYFRLPLQ gave 0.53, 1.09, 0.31, 0.84, 0.83, 1.05 (controls 1 of 18).
The variant KLYDEATSRVGTAENIA | EKTISLQ | QQYHRLPLS gave ND, 1.14, ND, ND, 1.99, 2.06 (controls 1 of 18).
The variant HLSDSIEKMASNARNIA | DETETEM | QQYYTLPLS gave 1.04, 1.36, 1.97, 1.42, 1.47, 1.30 (controls 2 of 18).
The variant HINDMLLGSEKIAHSIA | NTGVTSR | QQYQRLPLI gave 0.37, 0.78, 0.00, 0.03, 0.35, 0.53 (controls 0 of 18).
The variant KITFQMMSSNAHDYSIA | QTNVYSD | QQYNRLPLD gave 1.96, 1.54, ND, 1.56, 1.51, 1.11 (controls 0 of 18).
The variant FMQMDNDRMTDAAKNIA | DVDMRET | QQYARLPFM gave 1.10, 1.62, 0.69, 1.13, 1.30, 1.78 (controls 1 of 18).
The variant SMQSDQIEGNQQQNSIA | GESIADM | QHYERLPLT gave 0.54, 1.04, 1.20, 1.02, 1.41, 0.85 (controls 0 of 18).
The variant SMQSDQIEGNQQQNSIA | GESITDM | QHYERLPLT gave ND, ND, ND, ND, 1.83, ND (controls 0 of 18).
The variant MLWQHDEGFKGVKDAIA | NAELREG | QQYGRLPLS gave 0.95, 0.57, 0.35, 0.50, 0.66, 0.59 (controls 1 of 18).
The variant KISINQSNYNGMRSAIA | NTNLARM | QQYFHLPLM gave ND, 1.34, 0.96, 1.74, 1.36, 1.05 (controls 0 of 18).
The variant HLQEQSVMDEKNQNSMA | QTEQKYS | QQYARLPFM gave 0.86, 1.67, 0.85, 1.13, 0.98, 0.98 (controls 0 of 18).
The variant GLSQDFYNERNMANQVA | DGNQLAN | QQYARLPLV gave 1.63, 1.41, 0.78, 1.29, 0.88, 1.37 (controls 1 of 18).
The variant VMQMQQDRMQDAAKNIA | GVDMRET | QQYFRLPFL gave -0.09, 0.23, -0.05, 0.20, 0.00, 0.38 (controls 0 of 18).
The variant TMNVELIYGVPEMNNVA | AGSQKLA | QQYYRLPLS gave 1.05, 0.75, 0.81, 0.91, 1.04, 0.55 (controls 0 of 18).
The variant AMQMERLGQKQYQNNIA | NQDLRTA | QQYYMLPLV gave 0.14, 0.00, -0.05, 0.04, 0.26, 0.17 (controls 0 of 18).
The variant KVAELYEMGENFQSSIA | SGAHKVH | QQYYRLPLG gave 0.85, 0.50, 0.20, 0.39, 0.21, 0.11 (controls 1 of 18).
The variant IMSDSQERDASRLRNIA | DDTTRAM | QQYARLPLS gave 0.95, 0.78, 0.53, 0.41, 0.59, 0.76 (controls 1 of 18).
The variant KFMMSGEYQMHEQHNVA | QTEMKCK | QQYFRLPLT gave 0.82, -0.18, -0.44, -0.42, -0.21, -0.03 (controls 0 of 18).

Again, the first 2 entries without any signal:

With QLDQAYRVGELWKYSIA | HGSMRVQ | QCYVRLPLS the result was ND, ND, ND, ND, ND, ND (controls 1 of 18).
With KLMQSLSGEPKDWYNVA | EAESATV | QDYARLPLM the result was ND, ND, ND, ND, ND, ND (controls 0 of 18).

Reference: Li et al. 2023, doi:10.1038/s41467-023-39022-2. File: FLAb, binding data.